Read-outs that look alike come from different tables or passages of the source.

For the series the following is noted: isothermal TGA, API powder. As for the experimental part:
A typical calorimetric scan of nicotine m-salicylate powder is illustrated in FIG. 2. […] Thermogravimetric analysis on the powder was run in both scanning and isothermal modes. […] Isothermal data were also obtained on the API powder (˜10 mg per run) at 40° C., 50° C., and 60° C. for periods of at least 3 days.

As to Nicotine monodimethylmalonate, the “Nicotine Mass Loss” value amounted to 51 µg/day (40° C.), 374 µg/day (50° C.) and 2707 µg/day (60° C.).

Source of the values: patent publication US9724341B2 (priority 2013, dated 2017).
